Assay results as given in publication PMC8958509 (Journal of Medicinal Chemistry, 2022).

System: H. pylori contemporary clinical isolates
Experiment: MIC against contemporary clinical isolates
Format: cell-based, Helicobacter pylori
Details: H. pylori isolates USA (N = 200)

`Cc1ncc([N+](=O)[O-])n1CCO` [metronidazole, reference compound] showed an MIC range of 0.25 to 256 µg/mL.
